Data taken from article PMC7595441 (2020).

Biological target: amyloid-beta 42 (HiLyte Fluor labeled) Aβ42 (Homo sapiens)

Kd: 45 nM
B1: RAGE G82S (protein)
chain: AQNITARIGEPLVLKCKGAPKKPPQRLEWKLNTGRTEAWKVLSPQGGGPWDSVARVLPNSSLFLPAVGIQDEGIFRCQAMNRNGKETKSNYRVRVYQIPGKPEIVDSASELTAGVPNKVGTCVSEGSYPAGTLSWHLDGKPLVPNEKGVSVKEQTRRHPETGLFTLQSELMVTPARGGDPRPTFSCSFSPGLPRHRALRTAPIQPRVWEPVPLEEVQLVVEPEGGAVAPGGTVTLTCEVPAQPSPQIHWMKDGVPLPLPPSPVLILPEIGPQDQGTYSCVATHSSHGPQESRAVSISIIEPGEEGPTAGSVGGSGLGTLA
